HCMV UL50-53 inh – inhibitors of HCMV UL50-UL53 interaction, biochemical, HTRF. HCMV UL50-UL53 nuclear egress complex (human cytomegalovirus). normalized percent inhibition. inhibition, % (concentration not given with the values). 0.15% of 190,000 active. AID 1918969, 2023; in the data active = inhibition above about 27%, passing the limit was not always enough
GIV Gai3 FP – inhibitors of GIV GBA-motif binding to rat Galpha-i3. 210,000 tested, 0.42% active. percent of control (FP), % (concentration not given with the values). AID 1224905. Galpha-i3/FITC-GIV peptide fluorescence polarization, 90 min; active compounds read low; scaled: aluminum fluoride 0%, vehicle 100%;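 active = replicate mean at 85% of control or lower, very high polarization wells dropped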;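 note: wells of about 15 µL received 100 nL stock; the first replicate is given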
* marks the source's active call; other numbers are inactive results; . = no result. This is one part of a sample in which hits are shown more often than they occur.

SMILES,HCMV UL50-53 inh,GIV Gai3 FP
COc1ccccc1NC(=O)CSc1nnc2c3cc(-c4ccccc4)nn3ccn12,-18,108
Nc1ccc(-c2nc3ccccc3s2)cc1,-35,.
Nc1ncc(-c2nc3ccccc3s2)c(N)n1,-14,-55*
CCOc1cc(/C=C2/C(=O)N(c3ccccc3)N=C2C)ccc1OS(=O)(=O)c1ccccc1[N+](=O)[O-],0,106
COc1cc(C=C2C(=O)N(C)C(=O)N(C)C2=O)ccc1OS(=O)(=O)c1ccccc1[N+](=O)[O-],43*,95
CCOC(=O)c1c(C)sc(-c2c(-c3cc(C)ccc3C)[nH]c3c2c(=O)n(C)c(=O)n3C)c1O,15,195
CCOC(=O)c1c(C)sc(-c2c(-c3cccc(Cl)c3)[nH]c3c2c(=O)n(C)c(=O)n3C)c1O,-25,-63*
Cc1cc2c(cc1S(=O)(=O)N(C)CC(=O)NC(C)(C)C)OC(C)C(=O)N2 (stereo not given),.,100
Cc1oc(-c2cccc(C(F)(F)F)c2)cc1C(=O)O,3,107
CCOC(=O)c1sc(N/C=C(\C#N)c2nc3cc(Cl)ccc3o2)c(C#N)c1C,-6,-7.6*
CCOC(=O)c1sc(NC(=O)C2c3ccccc3Oc3ccccc32)c(C#N)c1C,2,106
Cc1ccc(CNC(=O)c2ccc(-c3nc(CCN(C)C(=O)Nc4ccccc4)no3)cc2)cc1,.,99

An excerpt of these results, as labelled records:
> CCOc1cc(/C=C2/C(=O)N(c3ccccc3)N=C2C)ccc1OS(=O)(=O)c1ccccc1[N+](=O)[O-]
  HCMV UL50-53 inh: 0; GIV Gai3 FP: 106

> COc1cc(C=C2C(=O)N(C)C(=O)N(C)C2=O)ccc1OS(=O)(=O)c1ccccc1[N+](=O)[O-]
  HCMV UL50-53 inh: 43*; GIV Gai3 FP: 95

> CCOC(=O)c1c(C)sc(-c2c(-c3cc(C)ccc3C)[nH]c3c2c(=O)n(C)c(=O)n3C)c1O
  HCMV UL50-53 inh: 15; GIV Gai3 FP: 195

> CCOC(=O)c1c(C)sc(-c2c(-c3cccc(Cl)c3)[nH]c3c2c(=O)n(C)c(=O)n3C)c1O
  HCMV UL50-53 inh: -25; GIV Gai3 FP: -63*

The list goes on:
SMILES,HCMV UL50-53 inh,GIV Gai3 FP
C=CC(=O)Nc1cccc(Oc2ccnc3[nH]ccc23)c1,33*,.
C=CC(=O)Nc1cccc(Oc2ccnc(Nc3ccc(N4CCN(C)CC4)cc3)n2)c1,-6,.
CCOC(=O)c1c(C)oc(NC(=O)Nc2ccc(F)cc2)c1C(=O)OCC,0,.
Cn1nccc1NC(=O)Nc1ccc(Cl)cc1,66*,102
Cn1nc(C(C)(C)C)cc1NC(=O)Nc1ccc(Cl)cc1,-10,.
O=C(CSc1nc2ccccc2c(=O)n1CC1CCC(C(=O)N2CCN(c3ccccc3)CC2)CC1)NCc1ccco1 (stereo not given),.,109
COC(=O)C1=C(C)NC(=O)/C1=C\c1cccc2ccccc12,.,113
O=C1/C(=C/c2cccc3ccccc23)Nc2ccccc21,-9,57*
CCc1cccc(NS(=O)(=O)c2ccc3[nH]c4c(c3c2)CCCC4)c1,.,97
COc1ccc(C(O)(C(=O)NNc2ccc(Cl)cc2)c2ccc(OC)cc2)cc1,.,106
CCOC(=O)C1=C(O)/C(=C/c2ccc(OCC)cc2)SC1=Nc1ccccc1,.,112
CCOC(=O)C1=C(O)/C(=C/c2ccc(N3CCOCC3)o2)SC1=Nc1ccc(OCC)cc1,-22,-15*
COc1ccc(CN2C(=O)NC(=O)/C(=C\c3cc(OC)ccc3OC)C2=O)cc1,83*,112
COc1ccc(/C=C2/C(=O)NC(=O)N(c3ccc(Br)cc3)C2=O)c(OC)c1,-3,107
CCOC(=O)C1=C(O)c2ccccc2C1=O,.,101
CCOC(=O)c1c2c(n3ccccc13)C(=O)c1ccccc1C2=O,.,-42*
O=C(O)COc1ccc(/C=C2\C(=O)NC(=O)N(c3ccccc3)C2=O)cc1Br,-26,94
OC[C@H]1OC([S-])[C@H](O)[C@@H](O)[C@@H]1O.[Au+] (stereo not given in full),58*,.
OCC1OC(Oc2ccccc2)C(O)C(O)C1O (stereo not given),-2,102
CCOC(=O)c1c(C)n(CCOc2cccc(OC)c2)c2c1cc(O)c1ccccc12,.,103
CCN(CC)c1ccc(/C=C2\N=C(SC)SC2=O)cc1,-30,-78*
CSC1=N/C(=C\c2ccccc2)C(=O)S1,-19,107
COc1ccc2c(c1)CC/C(=C\c1cccn1C)C2=O,-50,101
Cn1cccc1/C=C1\CCC/C(=C\c2cccn2C)C1=O,-78,-88*
CCOC(=O)N1CCN(C(=O)c2ccc(NCc3ccc(F)cc3)c(S(=O)(=O)Nc3cccc(OC)c3)c2)CC1,.,115
O=c1oc2cc(O)ccc2cc1-c1nc(-c2ccccc2F)no1,-30,-62*
O=c1oc2cc(O)ccc2cc1-c1csc(-c2ccccc2Cl)n1,5,112
N=C1/C(=C\c2cn(CCOc3ccccc3Cl)c3ccccc23)C(=O)N=C2SC=NN12,0,11*
Cc1ccc(C)c(OCCn2cc(/C=C3\C(=N)N4N=C(S(C)(=O)=O)SC4=NC3=O)c3ccccc32)c1,-19,100
Cc1ncc(CO)c(/C=N/N=C/c2c(O)ccc3ccccc23)c1O,-4,117
Cc1ccc(C(O)CN=Cc2c(O)ccc3ccccc23)cn1 (stereo not given),62*,.
Nc1nnnn1N=Cc1ccc(-c2ccc3c(c2)COC3=O)o1,.,36*
N#CC(C#N)=Cc1ccc(-c2ccc3c(c2)COC3=O)o1,-34,102
COc1ccc(C2c3cc(OC)c(OC)cc3CCN2C(C)=O)cc1OC (stereo not given),2,105
O=C1C(c2c(O)[nH]c3ccccc23)=Nc2ccccc21,-15,.
O=C1c2ccccc2-[n+]2ccc3c([nH]c4ccccc43)c21,61*,.
CC(=O)Oc1ccc2cc(-c3nc4c(s3)CCc3ccccc3-4)c(=O)oc2c1,.,-79*
CC(=O)Oc1ccc2cc(-c3nnc(-c4ccccc4)o3)c(=O)oc2c1,-32,173
CC(CCc1ccccc1)NC(=O)C1CCCN(c2ccnc(-c3ccccc3)n2)C1 (stereo not given),6,101
Cc1cccc(-c2nc3c(cnn3-c3ccccc3)c(=O)n2-c2ccc(Br)cc2)c1,56*,110
Cc1ccc(-n2c(-c3cccc(C)c3)nc3c(cnn3-c3ccccc3)c2=O)cc1,7,109
CCN(CC)c1ccc2cc(-c3nnc(Nc4ccc(C)cc4)s3)c(=O)oc2c1,.,-70*
CCOC(=O)c1ccc(Nc2nnc(-c3cc4ccc(N(CC)CC)cc4oc3=O)s2)cc1,-10,229
CCn1c(SCC(=O)OCC(=O)c2ccc(Br)s2)nnc1-c1cccs1,-3,.
Cc1cc(C(=O)O)ccc1-n1c(C)ccc1C,34*,97
Cc1ccc(C(=O)O)cc1-n1c(C)ccc1-c1ccccc1,6,103
CCOc1ccc2c(c1)=C(c1sc(=S)n(Cc3ccc(OC)cc3)c1O)C(=O)N=2,.,100
CN(C)c1ccc(/C=C2\C(=O)NC(=O)N(C3CCCC3)C2=O)o1,.,-42*
O=C1NC(=O)N(C2CCCCC2)C(=O)/C1=C\c1ccc(-c2ccc(C(=O)O)cc2)o1,-24,112
CCOC(=O)N1CCC(NC(=O)c2cc3nc(-c4ccc5c(c4)OCO5)cc(C(F)(F)F)n3n2)CC1,.,110
COc1ccc(NC(=O)c2nnc(C3CCN(C(=O)Nc4ccc(C)c(C)c4)CC3)s2)cc1,.,100
COc1cc(NC(=O)CCC2CCCC2)c(C(=O)N2CCN(C(C)=O)CC2)cc1OC,-16,.
CCCCNc1cc(NC2CCCCC2)c2c3c(onc13)-c1ccccc1C2=O,-13,159
CC1CC(C)CN(c2cc(NCCO)c3c4c(onc24)-c2ccccc2C3=O)C1 (stereo not given),-118,118
CC(C)CNc1cc(NCCO)c2c3c(onc13)-c1ccccc1C2=O,.,-54*
Cc1ccc(Sc2cc(Cl)c3noc4c3c2C(=O)c2ccccc2-4)cc1,.,103
O=C1c2ccccc2-c2onc3c(NCCO)cc(NC4CCCCC4)c1c23,-96,45*
CC(C)CNc1cc(Cl)c2noc3c2c1C(=O)c1ccccc1-3,.,-55*

Bioassay records as filed in PubChem BioAssay.
